# Measured affinities in a library of Ab-14 heavy chain variants

Source: Engelhart et al. 2022 (doi:10.1038/s41597-022-01779-4), MIT Lincoln Laboratory and A-Alpha Bio; data file from the FLAb repository.

Binding partner: SARS-CoV-2 spike HR2 peptide, sequence PDVDLGDISGINAS.

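The parent was found by panning a naive human phage display library on the peptide. AAYL49 was designed without a model: most single CDR substitutions and a random sample of double and triple ones. The scFvs were displayed on barcoded MATa yeast, the peptide on MATalpha yeast. The frequency of each diploid, read from paired DNA barcodes, reflects how well the two displayed proteins bind. Read counts were normalised to the haploid input and turned into Kd by a linear fit to BCL2-family pairs of known affinity, for each replicate. There are three technical replicates.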

The variants keep the light chain, the linker and the frameworks of Ab-14 (scFv order VH, a (GGGGS)3 linker, VL).
VH: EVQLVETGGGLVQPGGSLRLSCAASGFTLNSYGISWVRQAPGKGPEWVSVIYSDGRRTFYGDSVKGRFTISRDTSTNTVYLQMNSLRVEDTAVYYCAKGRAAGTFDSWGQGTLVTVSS
VL: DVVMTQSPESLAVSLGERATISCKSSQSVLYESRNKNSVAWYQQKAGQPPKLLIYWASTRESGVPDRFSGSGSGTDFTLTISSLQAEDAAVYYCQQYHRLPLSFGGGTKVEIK

The parent's heavy chain CDRs are GFTLNSYGIS, VIYSDGRRTFYGDSVK, GRAAGTFDS; each variant's own CDRs replace them letter for letter.
Values are log10 of the apparent Kd in nM; lower means stronger binding.
A pair that was not seen in that replicate is written "ND"; this usually means weak binding, but a binder can also be missed.
Parent in this assay: reference entry 0.65, copy in this library 4.11 (one replicate of three).
Nonspecific signal, from three strains lacking the peptide, appeared in 15% of pairings of library AAYL49, centred on 4.06 (5% of these signals below 2.83); values are not corrected for it. Also given: how often the same scFv was detected with the empty control strains, with their mean in brackets.

{"CDR-H1": "GFTLNSYGIS", "CDR-H2": "VWYSDGRRTFYGDSVK", "CDR-H3": "GRAAGEFNS", "replicates, log10 nM": "ND ND ND", "signal with controls": "0/9"}
{"CDR-H1": "GWTLNSYGIS", "CDR-H2": "VIYSDGRETFYGDSVK", "CDR-H3": "NRAAGTFDS", "replicates, log10 nM": "4.38 3.42 ND", "signal with controls": "2/9 (4.08)"}
{"CDR-H1": "LFALNSYGQS", "CDR-H2": "VIYSDGRRTFYGDSVK", "CDR-H3": "GRAAGTFDS", "replicates, log10 nM": "ND 4.30 ND", "signal with controls": "1/9 (3.74)"}
{"CDR-H1": "GFTLNSYGIS", "CDR-H2": "VIYSEGRRTFYGDSVK", "CDR-H3": "GRAAGTFDS", "replicates, log10 nM": "ND ND ND", "signal with controls": "1/9 (3.31)"}
{"CDR-H1": "GFTLNSYGYS", "CDR-H2": "VIYSDGRRTFYGDSDK", "CDR-H3": "GRAAGIFDS", "replicates, log10 nM": "2.88 ND ND", "signal with controls": "0/9"}
{"CDR-H1": "GFTLNSYGIS", "CDR-H2": "VIYSDGRMTFYGDSVK", "CDR-H3": "GRAAGLFDS", "replicates, log10 nM": "ND ND ND", "signal with controls": "0/9"}
{"CDR-H1": "QFTLNSKGIS", "CDR-H2": "VIYSDGRRTFYGDSVK", "CDR-H3": "GRAAGTFDD", "replicates, log10 nM": "ND ND ND", "signal with controls": "0/9"}
{"CDR-H1": "GKTLNSYGIS", "CDR-H2": "VIYSDCRRTFYGDSVK", "CDR-H3": "GRAAGVFDS", "replicates, log10 nM": "ND ND 5.19", "signal with controls": "4/9 (3.72)"}
{"CDR-H1": "GFTLNSYGQS", "CDR-H2": "VIYSPGRATFYGDSVK", "CDR-H3": "GRAAGTFDS", "replicates, log10 nM": "3.47 ND ND", "signal with controls": "1/9 (3.83)"}
{"CDR-H1": "GFTLNSYGIS", "CDR-H2": "VIYSDGRRTFRGDSVK", "CDR-H3": "SRTAGTFDS", "replicates, log10 nM": "ND ND ND", "signal with controls": "2/9 (3.47)"}
{"CDR-H1": "GFTLNSYGIS", "CDR-H2": "HIYSDGRRTFYGDSVK", "CDR-H3": "GTAAGTFWS", "replicates, log10 nM": "ND ND ND", "signal with controls": "0/9"}
{"CDR-H1": "GFNLNSYGIS", "CDR-H2": "VIYSDGMRTFYGDSVK", "CDR-H3": "CRAAGTFDS", "replicates, log10 nM": "0.04 0.39 0.16", "signal with controls": "3/9 (4.82)"}
{"CDR-H1": "GFTPNSYEIS", "CDR-H2": "VIYSDGRRTFYGDSVK", "CDR-H3": "GRAAVTFDS", "replicates, log10 nM": "4.00 4.13 ND", "signal with controls": "4/9 (4.08)"}
{"CDR-H1": "WFTLNSYGIS", "CDR-H2": "VIYSDGDRTFYGDSVK", "CDR-H3": "WRAAGTFDS", "replicates, log10 nM": "ND ND ND", "signal with controls": "0/9"}
{"CDR-H1": "GFTLNLYGIF", "CDR-H2": "VIYSDGRRTFYGDSVC", "CDR-H3": "GRAAGTFDS", "replicates, log10 nM": "ND ND ND", "signal with controls": "0/9"}
{"CDR-H1": "GFTLNSEGIS", "CDR-H2": "VIYSDTRRTFYDDSVK", "CDR-H3": "GRAAGTFDS", "replicates, log10 nM": "3.81 4.23 ND", "signal with controls": "2/9 (3.62)"}
{"CDR-H1": "VFTLNSYGIS", "CDR-H2": "VIYSDGRVTFYGDSVK", "CDR-H3": "GRAAPTFDS", "replicates, log10 nM": "ND ND ND", "signal with controls": "0/9"}
{"CDR-H1": "GFTNNSYGIM", "CDR-H2": "VIYSDGERTFYGDSVK", "CDR-H3": "GRAAGTFDS", "replicates, log10 nM": "2.55 2.38 2.75", "signal with controls": "0/9"}
{"CDR-H1": "GFTLNSLGIS", "CDR-H2": "VIYSDGRGTFYGDSVK", "CDR-H3": "TRAAGTFDS", "replicates, log10 nM": "ND ND ND", "signal with controls": "0/9"}
{"CDR-H1": "GFTLNCYGIS", "CDR-H2": "VIYSDGVRTFYGDSVP", "CDR-H3": "GRAAGTFDS", "replicates, log10 nM": "ND ND ND", "signal with controls": "1/9 (4.33)"}
{"CDR-H1": "GFTLNSYKIS", "CDR-H2": "VYYSDGRRTFYGDSVK", "CDR-H3": "LRAAGTFDS", "replicates, log10 nM": "ND ND ND", "signal with controls": "0/9"}
{"CDR-H1": "GFTLNSYGIS", "CDR-H2": "VIYSDGRRTFYGDSVE", "CDR-H3": "SRAAGTFDF", "replicates, log10 nM": "ND ND ND", "signal with controls": "1/9 (1.86)"}

For reference, 4 entries of the list once more:

{"CDR-H1": "GFTLNSYGIS", "CDR-H2": "VIYSEGRRTFYGDSVK", "CDR-H3": "GRAAGTFDS", "replicates, log10 nM": "ND ND ND", "signal with controls": "1/9 (3.31)"}
{"CDR-H1": "GFTLNSYGYS", "CDR-H2": "VIYSDGRRTFYGDSDK", "CDR-H3": "GRAAGIFDS", "replicates, log10 nM": "2.88 ND ND", "signal with controls": "0/9"}
{"CDR-H1": "GFTLNCYGIS", "CDR-H2": "VIYSDGVRTFYGDSVP", "CDR-H3": "GRAAGTFDS", "replicates, log10 nM": "ND ND ND", "signal with controls": "1/9 (4.33)"}
{"CDR-H1": "GFTLNSYKIS", "CDR-H2": "VYYSDGRRTFYGDSVK", "CDR-H3": "LRAAGTFDS", "replicates, log10 nM": "ND ND ND", "signal with controls": "0/9"}